System: LDL-RD mice
Experiment: Atheromatous plaque area in the aortic sinus of LDL-RD mice
Type: in vivo, mouse
Details: albumin control, oral 100 μg/dose 5 times every other day, Western diet; 6.5 weeks after first administration
From the text: LDL-RD mice: LDL-RD Mice [LDLr<m1Her>LDL−/−(C57B/6 50% JSL 25% I129 25%)], 8-12 weeks old, were supplied by the Hadassah Hospital Animal Facility (Hadassah Hospital, Israel).
Assessment of Atherosclerosis: Quantification of atherosclerotic fatty streak lesions was done by calculating the lesion size in the aortic sinus as previously described (Paigen et al. Quantitative assessment of atherosclerotic lesions in mice. Atherosclerosis 1987; 68: […]) and by calculating the lesion size in the aorta. Briefly, after perfusion with saline Tris EDTA, the heart and the aorta were removed from the animals and the peripheral fat cleaned carefully. The upper section of the heart was embedded in OCT medium (10.24% w/w polyvinyl alcohol; 4.26% w/w polyethylene glycol; 85.50 w/w nonreactive ingredients) and frozen. […] Sections were evaluated for fatty streak lesions after staining with oil-red O. Lesion areas per section were scored on a grid (Rubin et al. Inhibition of early atherogenesis in transgenic mice by human apoplipoprotein A-I. Nature 1991; 353: 265-267) by an observer counting unidentified, numbered specimens. […]
Plasma Measurements and Quantification of Atherosclerotic Lesions: Plasma total cholesterol and total triglyceride levels were measured by COBAS MIRA. […] Atherosclerotic lesion area was evaluated by computer analysis (Image Pro Plus) and supported by microscope evaluation as well. […]

Human Serum albumin: human serum albumin, control protein, 100 μg/dose
Aortic Sinus Lesion: 77,604 ± 5,039 μm^2
